Key:
[1] = target: Mitogen-activated protein kinase 8 (Homo sapiens, UniProt P45983); assay: Inhibition of human JNK1 alpha1 using GST-tagged ATF2 as substrate and [gamma33P]ATP incubated for 10 mins prior to substrate addition measured after 30 mins by scintillation counting
[2] = target: Mitogen-activated protein kinase 9 (Homo sapiens, UniProt P45984); assay: Inhibition of human JNK2 alpha2 using GST-tagged ATF2 as substrate and [gamma33P]ATP incubated for 10 mins prior to substrate addition measured after 30 mins by scintillation counting

Chains of the proteins cited; added tags and fusions are not shown. Lines headed by an entry give the natural chain unless they say otherwise; changes in a name come on top.
UniProt P45983: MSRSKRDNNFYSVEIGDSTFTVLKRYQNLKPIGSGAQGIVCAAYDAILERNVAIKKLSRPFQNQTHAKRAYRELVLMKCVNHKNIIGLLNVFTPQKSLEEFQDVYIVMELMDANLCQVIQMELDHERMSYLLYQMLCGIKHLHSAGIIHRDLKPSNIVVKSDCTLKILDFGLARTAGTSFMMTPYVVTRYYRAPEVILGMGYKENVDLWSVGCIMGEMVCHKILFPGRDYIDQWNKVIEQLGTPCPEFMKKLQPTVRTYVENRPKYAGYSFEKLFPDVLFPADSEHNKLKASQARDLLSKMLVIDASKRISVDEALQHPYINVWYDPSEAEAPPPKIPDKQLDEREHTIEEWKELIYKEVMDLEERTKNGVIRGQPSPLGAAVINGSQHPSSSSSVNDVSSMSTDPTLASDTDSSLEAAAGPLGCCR
UniProt P45984: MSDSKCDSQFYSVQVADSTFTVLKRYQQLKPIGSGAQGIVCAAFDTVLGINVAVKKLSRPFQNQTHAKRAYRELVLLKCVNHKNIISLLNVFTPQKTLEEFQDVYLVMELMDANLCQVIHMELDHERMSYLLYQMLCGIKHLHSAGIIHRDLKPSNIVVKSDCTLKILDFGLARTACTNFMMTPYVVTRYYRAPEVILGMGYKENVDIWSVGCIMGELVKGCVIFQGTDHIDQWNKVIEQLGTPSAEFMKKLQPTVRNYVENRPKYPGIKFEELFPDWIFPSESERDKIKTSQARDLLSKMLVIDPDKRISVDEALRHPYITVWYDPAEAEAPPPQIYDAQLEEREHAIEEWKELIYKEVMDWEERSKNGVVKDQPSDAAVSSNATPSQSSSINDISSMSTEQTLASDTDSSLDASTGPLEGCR

Structure (SMILES): COC(=O)c1c(-c2ccccc2)c2cc(Br)ccc2c(=O)n1Cc1ccc(S(C)(=O)=O)cc1
- IC50 [1]: 43 nM
- IC50 [2]: 72 nM

From ChEMBL document CHEMBL2203077, “Discovery of a novel series of 4-quinolone JNK inhibitors” (Bioorg Med Chem Lett, 2012)
